{
  "source": "paper PMC4576209",
  "about": "“Biochemical characterization of FIKK8 – A unique protein kinase from the malaria parasite Plasmodium falciparum and other apicomplexans” (Molecular and Biochemical Parasitology, 2015)",
  "system": "Nc1ncnc2c1ncn2[C@@H]1O[C@H](COP(=O)(O)OP(=O)(O)OP(=O)(O)O)[C@@H](O)[C@H]1O",
  "assay": "purified protein",
  "details": "peptide substrate; MgCl2 stated only for autophosphorylation",
  "data": [
    {"substance": "PfFIKK8l (Plasmodium falciparum 3D7)", "values": [
      {"measurement": "Km", "result": "11.0 ± 0.8", "unit": "µM"},
      {"measurement": "kcat", "result": "0.267 ± 0.005", "unit": "s⁻¹"},
      {"measurement": "kcat/Km", "result": 26700, "unit": "M⁻¹ s⁻¹"}
    ]}
  ]
}
